Consider seven molecules from patent publication US20230072955A1 (EXUMA BIOTECH, published 2023).

To fix the notation:
B1: VH-G056K/VL-A032D (antibody, V domains shown)
VH: [about 120 residues with changes skipped]
VL: DIQMTQSPSSLSASVGDRVTITCRASQDVNTDVAWYQQKPGKAPKLLIYSASFLYSGVPSRFSGSRSGTDFTLTISSLQPEDFATYYCQQHYTTPPTFGQGTKVEIK
notes: also called G056K/A032D
B2: VH-T058D/VL-A032D (antibody, V domains shown)
VH: [about 120 residues with changes skipped]
VL: B1 VL
notes: also called T058D/A032D
B3: VH-Y052D/VL-A032D (antibody, V domains shown)
VH: [about 120 residues with changes skipped]
VL: B1 VL
B4: VH-S119E/VL-A032D (antibody, V domains shown)
VH: [about 120 residues with changes skipped]
VL: B1 VL
B5: VH-Y052K/VL-A032D (antibody, V domains shown)
VH: [about 120 residues with changes skipped]
VL: B1 VL
notes: also called Y052K/A032D
B6: VH-N028W/VL-A032D (antibody, V domains shown)
VH: [about 120 residues with changes skipped]
VL: B1 VL
B7: VH-N055A/VL-A032D (antibody, V domains shown)
VH: [about 120 residues with changes skipped]
VL: B1 VL

The experiment addresses T1, recombinant human HER2 antigen (human, UniProt P04626, in part).
T1 construct: also called human HER2 protein
Nature of the experiment: pH range ELISA, IgG at 100 ng/mL on plate-coated recombinant human HER2; pH of 50% binding activity (pH 6.0 = 100%). (In general: An ELISA detects its analyte on a solid surface through an enzyme-linked reagent.)
Take B1: the “pH Inflection Point Calculation” value was 6.22 pH.
For B2 the value was 6.46 pH; for B3, 6.13 pH.
For B4 the value was 6.22 pH; for B5, 6.22 pH; for B6, 6.05 pH.
On to B7, for which the “pH Inflection Point Calculation” value was 6.3 pH.
